Test results from patent US20160022760A1, “METHODS OF TREATING CELIAC DISEASE WITH LARAZOTIDE” (priority 2014, published 2016).
Where no end group is shown, it is not given here.

Tested on: subjects with celiac disease
Experiment: Phase IIb study: clinical laboratory values (hematology, chemistry)
[1] = 1 mg TID, end of treatment, Safety Population
[2] = 2 mg TID, N = 87, treatment period, Safety Population
[3] = 2 mg TID, end of treatment, Safety Population
[4] = all treatment groups, end of treatment

“GGVLVQPG (SEQ ID NO:1) [Larazotide acetate]” was tested, and the “Calcium, Mean Change From Baseline to End of Treatment” value (1 mg TID, Safety Population) was 0.0 mg/dL, the “Chloride, Mean Change From Baseline to End of Treatment” value (1 mg TID, Safety Population) was -0.3 mmol/L and the “Creatinine, Mean Change From Baseline to End of Treatment” value (1 mg TID, Safety Population) was 0.0 mg/dL. For the same sequence, the “Eosinophils, Mean Change From Baseline to End of Treatment” value (1 mg TID, Safety Population) was −0.1%, the “Glucose (random), Mean Change From Baseline to End of Treatment” value (1 mg TID, Safety Population) was 2.2 mg/dL and the “Hematocrit, Mean Change From Baseline to End of Treatment” value (1 mg TID, Safety Population) was 0.5%. For the same sequence, the “Hemoglobin, Mean Change From Baseline to End of Treatment” value (1 mg TID, Safety Population) was 0.1 g/dL, the “Lymphocytes, Mean Change From Baseline to End of Treatment” value (1 mg TID, Safety Population) was 0.3% and the “Monocytes, Mean Change From Baseline to End of Treatment” value (1 mg TID, Safety Population) was −0.1%. The “Neutrophils, Mean Change From Baseline to End of Treatment” value (1 mg TID, Safety Population) was −0.2%, the “Platelet count, Mean Change From Baseline to End of Treatment” value (1 mg TID, Safety Population) was −2 K/μL and the “Potassium, Mean Change From Baseline to End of Treatment” value (1 mg TID, Safety Population) was -0.1 mmol/L. For the same sequence, the “Sodium, Mean Change From Baseline to End of Treatment” value (1 mg TID, Safety Population) was 0.2 mmol/L, the “Total bilirubin, Mean Change From Baseline to End of Treatment” value (1 mg TID, Safety Population) was -0.0 mg/dL and the “White blood cells, Mean Change From Baseline to End of Treatment” value (1 mg TID, Safety Population) was −0.2 K/μL. For the same sequence, the “ALT, Mean Value” [1] was 21.9 IU/L, the “AST, Mean Value” [1] was 20.9 IU/L and the “Albumin, Mean Value” [1] was 4.2 g/dL. For the same sequence, the “Alkaline phosphatase, Mean Value” [1] was 63.3 IU/L, the “BUN, Mean Value” [1] was 12.9 mg/dL and the “Basophils, Mean Value” [1] was 0.3%. The “Calcium, Mean Value” [1] was 9.4 mg/dL, the “Chloride, Mean Value” [1] was 103.8 mmol/L and the “Creatinine, Mean Value” [1] was 0.8 mg/dL. For the same sequence, the “Eosinophils, Mean Value” [1] was 2.4%, the “Glucose (random), Mean Value” [1] was 93.1 mg/dL and the “Hematocrit, Mean Value” [1] was 40.3%. The “Hemoglobin, Mean Value” [1] was 13.5 g/dL, the “Lymphocytes, Mean Value” [1] was 29.2% and the “Monocytes, Mean Value” [1] was 7.4%. The “Neutrophils, Mean Value” [1] was 60.8%, the “Platelet count, Mean Value” [1] was 250 K/μL and the “Potassium, Mean Value” [1] was 4.1 mmol/L. The “Sodium, Mean Value” [1] was 138.1 mmol/L, the “Total bilirubin, Mean Value” [1] was 0.5 mg/dL and the “White blood cells, Mean Value” [1] was 6.2 K/μL. The “Proportion of subjects who developed potentially clinically significant abnormal laboratory values during the treatment period” value (2 mg TID) was 19.5%, the “PCS abnormal ALT (≧3 × ULN), subjects n” value [2] was 0 and the “PCS abnormal AST (≧3 × ULN), subjects n” value [2] was 0. The “PCS abnormal Alkaline phosphatase (≧3 × ULN), subjects n” value [2] was 0, the “PCS abnormal Ferritin serum (≦0.75 × LLN), subjects %” value [2] was “(10.3) %” and the “PCS abnormal Ferritin serum (≦0.75 × LLN), subjects n” value [2] was 9. For the same sequence, the “PCS abnormal Glucose random (≦0.75 × LLN), subjects %” value [2] was “(2.3) %”, the “PCS abnormal Glucose random (≦0.75 × LLN), subjects n” value [2] was 2 and the “PCS abnormal Hematocrit (≦0.75 × LLN), subjects n” value [2] was 0. For the same sequence, the “PCS abnormal Hemoglobin (≦0.75 × LLN), subjects n” value [2] was 0, the “PCS abnormal Lymphocytes (≦0.75 × LLN or ≧1.5 × ULN), subjects %” value [2] was “(5.7) %” and the “PCS abnormal Lymphocytes (≦0.75 × LLN or ≧1.5 × ULN), subjects n” value [2] was 5. The “PCS abnormal Neutrophils (≦0.75 × LLN or ≧1.5 × ULN), subjects %” value [2] was “(2.3) %”, the “PCS abnormal Neutrophils (≦0.75 × LLN or ≧1.5 × ULN), subjects n” value [2] was 2 and the “PCS abnormal White blood cells (≦0.75 × LLN or ≧1.5 × ULN), subjects n” value [2] was 0. The “Subjects with at least 1 PCS abnormal test, %” value [2] was “(19.5) %”, the “ALT, Mean Change From Baseline to End of Treatment” value (2 mg TID, Safety Population) was −0.6 IU/L and the “AST, Mean Change From Baseline to End of Treatment” value (2 mg TID, Safety Population) was −0.9 IU/L. The “Albumin, Mean Change From Baseline to End of Treatment” value (2 mg TID, Safety Population) was 0.0 g/dL, the “Alkaline phosphatase, Mean Change From Baseline to End of Treatment” value (2 mg TID, Safety Population) was −0.4 IU/L and the “BUN, Mean Change From Baseline to End of Treatment” value (2 mg TID, Safety Population) was 1.0 mg/dL. For the same sequence, the “Basophils, Mean Change From Baseline to End of Treatment” value (2 mg TID, Safety Population) was 0%, the “Calcium, Mean Change From Baseline to End of Treatment” value (2 mg TID, Safety Population) was -0.0 mg/dL and the “Chloride, Mean Change From Baseline to End of Treatment” value (2 mg TID, Safety Population) was -0.7 mmol/L. For the same sequence, the “Creatinine, Mean Change From Baseline to End of Treatment” value (2 mg TID, Safety Population) was 0.0 mg/dL, the “Eosinophils, Mean Change From Baseline to End of Treatment” value (2 mg TID, Safety Population) was 0% and the “Glucose (random), Mean Change From Baseline to End of Treatment” value (2 mg TID, Safety Population) was 0.2 mg/dL. The “Hematocrit, Mean Change From Baseline to End of Treatment” value (2 mg TID, Safety Population) was 0.4%, the “Hemoglobin, Mean Change From Baseline to End of Treatment” value (2 mg TID, Safety Population) was 0.1 g/dL and the “Lymphocytes, Mean Change From Baseline to End of Treatment” value (2 mg TID, Safety Population) was 0.9%. For the same sequence, the “Monocytes, Mean Change From Baseline to End of Treatment” value (2 mg TID, Safety Population) was −0.4%, the “Neutrophils, Mean Change From Baseline to End of Treatment” value (2 mg TID, Safety Population) was −0.6% and the “Platelet count, Mean Change From Baseline to End of Treatment” value (2 mg TID, Safety Population) was 3.1 K/μL. The “Potassium, Mean Change From Baseline to End of Treatment” value (2 mg TID, Safety Population) was -0.1 mmol/L, the “Sodium, Mean Change From Baseline to End of Treatment” value (2 mg TID, Safety Population) was -1.0 mmol/L and the “Total bilirubin, Mean Change From Baseline to End of Treatment” value (2 mg TID, Safety Population) was -0.0 mg/dL. The “White blood cells, Mean Change From Baseline to End of Treatment” value (2 mg TID, Safety Population) was 0.2 K/μL, the “ALT, Mean Value” [3] was 22.2 IU/L and the “AST, Mean Value” [3] was 22.9 IU/L. For the same sequence, the “Albumin, Mean Value” [3] was 4.2 g/dL, the “Alkaline phosphatase, Mean Value” [3] was 64.2 IU/L and the “BUN, Mean Value” [3] was 13.0 mg/dL. For the same sequence, the “Basophils, Mean Value” [3] was 0.4%, the “Calcium, Mean Value” [3] was 9.4 mg/dL and the “Chloride, Mean Value” [3] was 103.6 mmol/L. For the same sequence, the “Creatinine, Mean Value” [3] was 0.8 mg/dL, the “Eosinophils, Mean Value” [3] was 3.2% and the “Glucose (random), Mean Value” [3] was 90.9 mg/dL. The “Hematocrit, Mean Value” [3] was 40.5%, the “Hemoglobin, Mean Value” [3] was 13.6 g/dL and the “Lymphocytes, Mean Value” [3] was 30.5%. The “Monocytes, Mean Value” [3] was 7.5%, the “Neutrophils, Mean Value” [3] was 58.5% and the “Platelet count, Mean Value” [3] was 253.3 K/μL. The “Potassium, Mean Value” [3] was 4.2 mmol/L, the “Sodium, Mean Value” [3] was 138.1 mmol/L and the “Total bilirubin, Mean Value” [3] was 0.5 mg/dL. The “White blood cells, Mean Value” [3] was 5.8 K/μL, the “Shifts in hematology or chemistry parameters, in words” value (Week 4, end of treatment, end of follow-up) was “None of the shifts in hematology or chemistry parameters were of clinical concern” and the “Mean changes from baseline in chemistry parameters, in words” value [4] was “None of the mean changes in chemistry parameters were considered to be clinically significant”. The “Mean changes from baseline in hematology parameters, in words” value [4] was “None of the mean changes in hematology parameters were considered to be clinically significant”.
